Literature values in patent US4956171A, “Transdermal drug delivery using a dual permeation enhancer and method of performing the same” (Paco Pharmaceutical Services, Inc., priority 1989, dated 1990).

What was measured:
[1] = relative to morphine; background statement; cited from earlier work
[2] = on over dosage; cited from earlier work

In the case of `CN1CC[C@]23c4c5ccc(O)c4O[C@H]2C(=O)CC[C@H]3[C@H]1C5` [hydromorphone], the “analgesic activity, times more potent than morphine” value [1] is given as “about 7 times” and the side effects [2] is given as “severe side effects, particularly respiratory depression”.
